Reference: patent publication US20050089473A1, “Potassium channel mediated delivery of agents through the blood-brain barrier” (Cedars-Sinai Medical Center, priority 2003, published 2005)

What was measured:
[1] = test system: Her2-positive metastatic breast cancer; conditions: human, in vivo; cited from earlier work
[2] = test system: intracranial human glial tumors; assay: Survival study, nude mice with intracranial human glial tumors; assay type: in vivo, mouse; conditions: i.v., three consecutive doses for three days
Experimental: GBM-xenograft rat and mouse models were developed by intracranially implanting primary GBM cells isolated from patient brain tumor tissue. The IC50 of Herceptin on GBM cells in vitro by FACS analysis was established. To investigate whether MS administration by intracarotid (i.c.) and intravenous (i.v.) routes, increases BTB permeability to different tracers, and enhances delivery to brain tumor, permeability studies were performed. The effect of i.c. and i.v. MS administration on BTB permeability in a GBM-xenograft rat model is presented below.
Nude mice were intracranially implanted with cells. The tumor was allowed to grow for 7 days before treatment was initiated. Mice were divided into groups: (1) control, (2) MS (0.9 mM), (3) Temodor (27 mM), (4) Herceptin (4 mg/kg), (5) MS+Temodor, (6) minoxidil sulfate+Herceptin, (7) herceptin+temodor, and (8) MS+Herceptin+temodor. Untreated mice were either dead or euthanized due to tumor-related complications within 30 days. Immediately after 75-days post tumor implantation, all surviving treated mice were euthanized.

Substance	Breast cancer patients developing bone metastasis [1] [%]	Breast cancer patients developing brain metastasis [1] [%]	Mean survival [2] [days]
trasbuzamab: given to Her2-positive breast cancer patients; probably trastuzumab	4	28	–
trastuzumab [Herceptin]	–	–	24.91 ± 8.3
